Among the data in ChEMBL document CHEMBL1817668, “Synthesis of 6-[¹⁸F]fluoro-PBR28, a novel radiotracer for imaging the TSPO 18 kDa with PET” (Bioorg Med Chem Lett, 2011) are Ki values, retold here.

The chains behind the UniProt entries cited, without tags or fusion partners.
UniProt P30536, whole entry: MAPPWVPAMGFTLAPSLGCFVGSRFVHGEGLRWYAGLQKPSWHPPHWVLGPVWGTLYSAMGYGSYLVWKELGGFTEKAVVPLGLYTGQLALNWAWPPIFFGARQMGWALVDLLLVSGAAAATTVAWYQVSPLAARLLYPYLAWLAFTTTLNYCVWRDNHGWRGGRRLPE

The target of the test is Translocator protein (Homo sapiens, UniProt P30536). Description: Displacement of [3H]PK11195 from TSPO in human HEK293 mitochondrial fraction. The method, boiled down:
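Ki determined by competition with [3H]PK11195 for TSPO. Sources were rat heart membrane homogenates and mitochondrial-enriched fractions of rat kidney and of HEK293 cells. Mean ± SEM of at least three independent experiments, each run in duplicate.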

The structures appear in SMILES notation.

By Ki is commonly meant a measure of affinity in units of concentration, obtained from inhibition or displacement. Low readings indicate higher affinity, high ones lower affinity. `CCC(C)N(C)C(=O)c1cc2ccccc2c(-c2ccccc2Cl)n1` (stereo unspecified) [PK-11195] registered a Ki of 7.11 nM.
